scFv variants of Ab-14 (light chain) against a SARS-CoV-2 spike peptide

Values reported by Engelhart et al. 2022, doi:10.1038/s41597-022-01779-4 (FLAb copy).

Target: peptide PDVDLGDISGINAS, taken from heptad repeat 2 (HR2) of SARS-CoV-2 spike.

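In library AAYL50, one, two or three CDR residues were substituted; doubles and triples were drawn at random. The assay is AlphaSeq: two haploid yeast populations carry antibody and antigen on their surface. The frequency of each diploid, read from paired DNA barcodes, reflects how well the two displayed proteins bind. Scores were corrected for input abundance and mapped to Kd with protein pairs of known affinity run in the same pool. The assay was run in three technical replicates.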

Each scFv is VH, the linker GGGGSGGGGSGGGGS, VL, as in the parent Ab-14, and differs from it in the CDRs of the light chain only.
VH: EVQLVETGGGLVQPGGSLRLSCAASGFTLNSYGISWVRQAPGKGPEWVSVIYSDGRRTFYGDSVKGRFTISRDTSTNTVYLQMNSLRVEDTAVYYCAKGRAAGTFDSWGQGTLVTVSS
VL: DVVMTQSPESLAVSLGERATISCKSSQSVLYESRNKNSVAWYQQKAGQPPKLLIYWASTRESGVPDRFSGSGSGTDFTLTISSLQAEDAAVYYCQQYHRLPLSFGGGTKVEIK

Each variant is given by its three light chain CDRs, as the data file delimits them; those of the parent are KSSQSVLYESRNKNSVA, WASTRES, QQYHRLPLS.
Scale: log10 of Kd in nM, estimated from mating counts; low values are strong binders.
Where no diploid with the target was found in that replicate, the entry reads "nd": below detection, most likely a poor binder, though not proof of it.
Nonspecific signal, from three strains lacking the peptide, appeared in 18% of pairings of library AAYL50, centred on 4.19 (5% of these signals below 2.99); values are not corrected for it. The control count says in how many pairings with the empty strains this scFv gave a signal, with their mean in brackets.

CDR-L1 | CDR-L2 | CDR-L3 | log10 Kd, replicates | empty controls
KSSQSVLCESRNKNSVA | WASTYES | QQYHRLPLF | nd / nd / nd | 3 of 9 (5.19)
KSDQSVLYESRNKNSVA | WASTREK | QSYHRLPLS | 1.46 / 1.37 / 1.71 | 2 of 9 (4.54)
KSRQSVLYESRNKCSVA | WWSTRES | QQYHRLPLS | 4.78 / 5.65 / 4.69 | 7 of 9 (4.68)
KSSQSVVYESRNKISVC | WASTRES | QQYHRLPLS | 4.53 / 4.58 / 6.07 | 7 of 9 (4.69)
KSSVSVLYESCNKNSVA | WSSTRES | QQYHRLPLS | 2.20 / 2.40 / 2.79 | 2 of 9 (4.17)
KSSQSVLYESRNKNSVA | WASTREV | HQYHRLPLN | nd / 5.16 / nd | 2 of 9 (4.05)
KSSQSVLYESRNKNSVA | WASVRER | QQYHRLELS | 0.92 / 0.73 / 0.88 | 1 of 9 (3.25)
KSSQSVLYESRNKNIVA | WASYRES | QQCHRLPLS | nd / nd / nd | 1 of 9 (2.94)
KSSQSVLYESRNKNSVA | WASTRES | TQQHRLVLS | nd / nd / nd | 0 of 9
KLSQSVLYESDNKNSVA | WASTRPS | QQYHRLPLS | 0.11 / 0.35 / 0.13 | 4 of 9 (3.22)
NSSQSVLYHSRNKNSVH | WASTRES | QQYHRLPLS | 5.73 / nd / 4.38 | 1 of 9 (4.36)
KSSQKVLYESCNKNSVA | WASTRES | QQYHILPLS | 2.48 / 1.96 / 2.78 | 4 of 9 (3.62)
KSSQSVLYESRNKNSVA | WASTLES | QMYHRLPLS | nd / nd / nd | 0 of 9
KSSQSVTYESRNKNSVA | WASTFES | QMYHRLPLS | nd / nd / nd | 1 of 9 (3.07)
KSSQSNLYESRNKNSVW | WASTRIS | QQYHRLPLS | nd / nd / nd | 1 of 9 (2.80)
KSQQSVLYESRNKNSVA | WASRRES | QQYHRLPLS | 1.28 / 1.19 / 1.44 | 2 of 9 (4.33)
SSSQSVSYASRNKNSVA | WASTRES | QQYHRLPLS | 0.85 / 1.19 / 1.25 | 2 of 9 (3.22)
KWSQSVLYESRNDNSVA | WASTRES | QQYHRLPLS | nd / 2.69 / nd | 0 of 9
KSSQSVLYLSRNKNSVA | WASTRRS | GQYHRLPLS | nd / nd / nd | 0 of 9
KSSQLVLYESRNKNSVA | WAVTRES | QQYHRWPLS | nd / nd / nd | 1 of 9 (3.12)
PSSQSVLDESRNKNSVA | WASTRES | QQYHRLNLS | nd / nd / nd | 4 of 9 (3.62)
KSSQSDLYESRPKNSVA | WWSTRES | QQYHRLPLS | nd / 3.27 / nd | 1 of 9 (3.79)
KSSQPVLYESRNKNSVA | WASTRES | QQYHRKPLS | 1.33 / 1.41 / 1.50 | 2 of 9 (4.35)
KSSQSVLYESRNKNSVA | WMSTRES | QQAHRLPLS | nd / nd / nd | 3 of 9 (3.61)
KSSQSVLYESRNKNSVA | WATTYES | QQYSRLPLS | nd / nd / nd | 3 of 9 (3.29)
KSSQSVLYESRNKNSVK | WAETRES | QQYHMLPLS | nd / nd / nd | 0 of 9
KSSQSVLYESMNVNSVL | WASTRES | QQYHRLPLS | 4.09 / 3.99 / nd | 3 of 9 (4.05)
KSSQSVLYISRNKNSVA | WASTRES | QGYHVLPLS | nd / 4.26 / nd | 1 of 9 (4.28)
KSSQSVLYESRNANSVA | WASTREQ | QQYHRLPCS | 0.37 / 0.61 / 0.50 | 2 of 9 (4.01)
KSSQSVLYEDRNKNSVA | WASTRKS | QQYHLLPLS | 2.86 / 2.73 / 3.42 | 1 of 9 (4.04)
KSKQSVLYESRNRNSVA | WASTRES | QQYHREPLS | nd / nd / 3.96 | 0 of 9
KSSQSVLYESRNKNSVA | WASTSES | QQYHRLSLS | 3.96 / nd / nd | 1 of 9 (3.82)
KSSQSVLYESRNKNVVA | WKSRRES | QQYHRLPLS | nd / 3.84 / 5.23 | 3 of 9 (3.43)
KSSQDVLYESRNFNSVA | WASTREA | QQYHRLPLS | 0.59 / 0.89 / 0.73 | 1 of 9 (2.29)
KSSQSVLYESTNKNSVW | WASTHES | QQYHRLPLS | nd / nd / 4.71 | 0 of 9

Extract of 3 entries:

{"CDR-L1": "KSSQSVLYESRNKNSVK", "CDR-L2": "WAETRES", "CDR-L3": "QQYHMLPLS", "log10 Kd, replicates": "nd / nd / nd", "empty controls": "0 of 9"}
{"CDR-L1": "KSSQSVLYESRNKNVVA", "CDR-L2": "WKSRRES", "CDR-L3": "QQYHRLPLS", "log10 Kd, replicates": "nd / 3.84 / 5.23", "empty controls": "3 of 9 (3.43)"}
{"CDR-L1": "KSSQPVLYESRNKNSVA", "CDR-L2": "WASTRES", "CDR-L3": "QQYHRKPLS", "log10 Kd, replicates": "1.33 / 1.41 / 1.50", "empty controls": "2 of 9 (4.35)"}